{"source": "PubChem BioAssay AID1259344", "about": "(Tox21, 2017)", "test": "qHTS assay to identify small molecule phospholipidosis (PLD) inducers", "conditions": "HepG2 phospholipidosis, LipidTOX Red imaging, 24 h", "source_text": "National Center for Advancing Translational Sciences [NCATS]\nDrug-induced Phospholipidosis (PLD) caused by cationic amphiphilic drugs is characterized by the appearance of unicentric or multicentric-lamellar bodies when viewed under electron microscope. Electron microscopy is the gold standard method for PLD detection, however, this method is time-consuming and labor intensive, making it unsuitable for evaluating a large set of compounds. A cell-based phospholipidosis assay has been developed using the LipidTox reagent in HepG2 cells and miniaturized into a 1536-well plate format. Drug induced phospholipid accumulation is stained with the LipidTox dyes in red color which then is determined using an automated high content screening system.\nHepG2 cells are dispensed at 900 cells/3 uL/well into Collagen I-coated 1536-well black-wall/clear-bottom assay plates (Greiner Bio-One, Monroe, NC) using the Multidrop Combi 8 channel dispenser (Thermo Fisher, Waltham, MA, USA). The assay plates are incubated at 37 C for 4 hours to allow the cell attachment. 3 uL of 1:500 LipidTOX Red dye is added using the dispenser, and then 23 nL compounds are added via a Wako Pintool station (Wako Automation, San Diego, CA). Amiodarone, a known PLD inducer, was used as a positive control and DMSO was used as a negative control. The assay plates were then incubated at 37 C for 24 hours.\nFor fixations, 4 uL of 8% paraformaldehyde fixative solution containing 10 ug/mL Hoechst 33342 in Dulbecco's phosphate-buffered saline (DPBS) is added using a Kalypsys washer/dispenser (Kalypsys, San Diego, CA, USA). After incubation at room temperature for 30 min, the assay plates are washed once with DPBS using a Kalypsys washer/dispenser. The assay plates are then sealed and stored at 4 C before imaging. The fluorescence intensities (595 nm excitation, 615 nm emission for LipidTOX; 352 nm excitation, 461 nm emission for Hoechst 33342) are measured using an ImageXpress Micro Widefield High Content Screening System (Molecular Devices, Sunnyvale, CA, USA) with a 20x Plan Fluor objective. Images are acquired for one site in each well and analyzed with the MetaXpress software (Molecular Devices) using the Transfluor module. Several algorithmic outputs, such as pit count per well, pit count per cell, pit integrated intensity per well, and pit integrated intensity per cell, are used for quantitative image analysis for PLD.", "note": "The list shows a part of the results, in another mix than the full data. Results filed as inconclusive are left out. Active and inactive are the calls of the source. Calls follow the shape of the dose curve; as a rule, active = well fitted activation curve with a large enough effect; inconclusive = small, poorly fitted or top-dose-only effect; inactive = flat fitted curve, though single readings scatter. % is scaled to controls: 0 for no effect and ±100 for the full control effect."}
{"smiles": "CN(C)CCS", "values": [{"measurement": "PLD induction", "setting": "at 38.3 µM (top of the series)", "result": "inactive: 0.137%"}]}
{"smiles": "O=[N+]([O-])[O-].[NH4+]", "values": [{"measurement": "PLD induction", "setting": "at 38.3 µM (top of the series)", "result": "inactive: 0.0384%"}]}
{"smiles": "O=[N+]([O-])OCC(CO[N+](=O)[O-])(CO[N+](=O)[O-])CO[N+](=O)[O-]", "values": [{"measurement": "PLD induction", "setting": "at 38.3 µM (top of the series)", "result": "inactive: -0.53%"}]}
{"smiles": "O=[N+]([O-])c1cccc([N+](=O)[O-])c1", "values": [{"measurement": "PLD induction", "setting": "at 38.3 µM (top of the series)", "result": "inactive: -1.15%"}, {"measurement": "PLD induction", "setting": "at 78.4 µM (top of the series)", "result": "inactive: -3.53%"}]}
{"smiles": "CC(C)N(CCCl)C(C)C", "values": [{"measurement": "PLD induction", "setting": "at 38.3 µM (top of the series)", "result": "inactive: -2.7%"}]}
{"smiles": "C/C1=C2N=C(/C=C3N=C(/C(C)=C4\\[N-][C@@](C)([C@@H]5N=C1[C@](C)(CCC(=O)NC[C@@H](C)OP(=O)([O-])O[C@H]1[C@@H](O)[C@@H](n6cnc7cc(C)c(C)cc76)O[C@@H]1CO)[C@H]5CC(N)=O)[C@@](C)(CC(N)=O)[C@@H]4CCC(N)=O)[C@@](C)(CC(N)=O)[C@@H]\\3CCC(N)=O)C(C)(C)[C@@H]/2CCC(N)=O.[C-]#N.[Co+3]", "values": [{"measurement": "PLD induction", "setting": "at 15.5 µM (top of the series)", "result": "inactive: 4.59%"}]}
{"smiles": "Cc1cccc([N+](=O)[O-])c1[N+](=O)[O-]", "values": [{"measurement": "PLD induction", "setting": "at 15.5 µM (top of the series)", "result": "inactive: -3.58%"}]}
{"smiles": "OCCSCCO", "values": [{"measurement": "PLD induction", "setting": "at 38.3 µM (top of the series)", "result": "inactive: 0.38%"}]}
{"smiles": "CC(C)OP(=O)(F)OC(C)C", "values": [{"measurement": "PLD induction", "setting": "at 38.3 µM (top of the series)", "result": "inactive: -0.229%"}]}
